# Source: patent US20230218774A1, “DRUG ANTIBODY CONJUGATES” (PHARMA MAR, S.A., priority 2019, published 2023)
# Assays:
# BT-474 tumors = test: In vivo antitumor activity, BT-474 HER2 positive breast tumor model; conditions: BT-474 in SCID mice
# Method: ADC-3 has been evaluated for in vivo antitumor activity in BT474 cell line, a HER2 positive breast tumor model.
# Briefly, 4 to 6 week-old SCID mice were subcutaneously implanted with tumor fragments previously generated in donor mice. Before the initiation of each experiment, a blinded, independent determination of C-erb2 (oncogene related with HER-2 expression) by IHC was performed.
# The animals were implanted as described above and when tumors reached ca. 150-200 mm3, tumor bearing animals (N=10/group) were randomly allocated into treatment groups according to the following experimental design:
# Treatments were administered intravenously on days 0.7.14, 21 and 28 (q7dx5).
# Median was calculated for tumor volume on each measurement day. Complete tumor regression (CR) was defined when tumor volume <63 mm^3 for 2 or more consecutive measurements.
# [1] = system: SK-BR-3, HCC-1954, MDA-MB-231 and MCF-7 cells
# Source text: The aim of the assay was to evaluate the in vitro cytostatic (ability to delay or arrest tumor cell growth) or cytotoxic (ability to kill tumor cells) activity of the samples being tested.
# The following human tumor cell lines were obtained from the American Type Culture Collection (ATCC): SK-BR-3 (ATCC HB-30), HCC-1954 (ATCC CRL-2338) (both being breast cancer, HER2+), MDA-MB-231 (ATCC HTB-26), MCF-7 (ATCC HTB-22) (both being breast cancer, HER2−).
# For SK-BR-3, HCC-1954, MDA-MB-231 and MCF-7 cells, a colorimetric assay using Sulforhodamine B (SRB) was adapted for quantitative measurement of cell growth and cytotoxicity, as described by V. Vichai and K. Kirtikara. In “Sulforhodamine B colorimetric assay for cytotoxicity screening”, Nature Protocols, 2006, 1: 1112-1116. Briefly, cells were seeded in 96-well microtiter plates and allowed to stand for 24 hours in drug-free medium before treatment with vehicle alone or with the tested substances for 72 hours. For quantification, cells were washed twice with phosphate buffered saline (PBS), fixed for 15 min in 1% glutaraldehyde solution, rinsed twice with PBS, stained in 0.4% (w/v) SRB with 1% (v/v) acetic acid solution for 30 min, rinsed several times with 1% acetic acid solution and air-dried.
# Cell survival was expressed in all cases as percentage of control, untreated cell survival. […]
Substance,"tumor regressions (BT-474 tumors; 30.0 mg/kg intravenously q7dx5, from day 14 to day 190)","complete tumor regressions (BT-474 tumors; 30 mg/Kg intravenously q7dx5, CR = tumor volume <63 mm^3 for 2 or more consecutive measurements)","antitumor activity (BT-474 tumors; 30 mg/Kg intravenously q7dx5, statistically significant, p<0.038 from day 12 until last registered day)",cytotoxicity / IC50 range in words [1]
Kadcyla: comparator treatment group at 30 mg/kg in the BT-474 study; text does not define the trade name (presumably Trastuzumab emtansine),7 out of 7,–,–,–
Trastuzumab: monoclonal antibody that interferes with the HER2/neu receptor; purchased from Roche,–,not achieved,marked antitumor activity,completely inactive
